{"source": "paper PMC9290024", "about": "(ACS Medicinal Chemistry Letters, 2022)", "system": "KMS-11 xenograft tumor", "assay": "In vivo efficacy in KMS-11 cell line-derived xenograft model", "set-up": "species or system NOD SCID mouse", "conditions": "daily dosing of 15 and 30 mg/kg bid in mice"}
{"smiles": "CC(=O)N1CCN([C@H]2CCC[C@@H](NC(=O)c3cc4c(F)ccc(C)c4[nH]3)C2)CC1", "note": "[EZM0414]", "values": [{"measurement": "tolerability", "result": "well-tolerated"}]}
